One substance from patent US9975933B2 can be followed below.

The target of this test is FcγRIIIb (Homo sapiens (Human)) (UniProt O75015). Nature of the test: SPR. For orientation: Surface plasmon resonance follows binding to a sensor surface in real time, without labels.

Cetuximab (antibody): the Kd – broadly, a measure of binding affinity in units of concentration – worked out at 8.23 µM.
